From US6607723B1, “Methods and compositions for attenuating antibody-mediated xenograft rejection in human recipients” (priority 1991, dated 2003) come the findings set out here.

In the series the test system is pig kidney cell line (LLC-PK1). Description: Chromium release assay, plasma incubated with soluble carbohydrate haptens. The class given is cell-based. The settings on record: for cytotoxic activity of plasma incubated with hapten: not heat inactivated.

With “αGal(1-3)βGal(1-4)βGlc-O—(CH2)COOCH3 [linear B type 6X-Y]”, the “cytotoxic effect of antibodies to the pig cell line” value (heat inactivated human plasma (O and A), 1 ml incubated overnight at 4° C. with 0.215 g hapten, FIGS. 8A and 8B) is on record as “completely inhibited”. Further, the “cytotoxic activity of plasma incubated with hapten” value is recorded as “significantly reduced” (human plasma A, B, O and AB, FIG. 9); “reduced the cytotoxic activity in one plasma type, but not the other” (two different AB human plasma types, FIG. 10).
